Values of other authors as cited in US11304929B2, “Tosylacetate based compounds and derivatives thereof as PHGDH inhibitors” (priority 2017, dated 2022).

By UniProt entry, the sequences of proteins in these tests, tags left out. Residues count along the entry.
UniProt O43175, 2-533 limits assumed: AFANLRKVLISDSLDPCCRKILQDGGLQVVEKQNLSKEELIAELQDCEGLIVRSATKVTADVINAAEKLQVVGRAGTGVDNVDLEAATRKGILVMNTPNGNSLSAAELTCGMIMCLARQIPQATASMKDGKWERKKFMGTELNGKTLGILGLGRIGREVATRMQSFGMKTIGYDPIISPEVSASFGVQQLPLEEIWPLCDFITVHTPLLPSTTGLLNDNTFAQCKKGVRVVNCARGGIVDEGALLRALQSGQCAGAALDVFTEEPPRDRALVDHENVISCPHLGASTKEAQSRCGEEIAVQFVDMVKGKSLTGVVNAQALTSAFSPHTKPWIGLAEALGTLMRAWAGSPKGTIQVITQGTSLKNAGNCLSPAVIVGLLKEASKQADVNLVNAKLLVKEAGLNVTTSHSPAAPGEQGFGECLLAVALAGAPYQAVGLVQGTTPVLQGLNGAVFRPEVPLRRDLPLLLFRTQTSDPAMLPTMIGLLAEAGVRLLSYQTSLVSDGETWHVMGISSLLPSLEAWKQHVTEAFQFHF

Target: PHGDH (Homo sapiens (Human), UniProt O43175)
Details: reported by Cantley et al., PNAS (2016); cited from earlier work

In the case of CBR-5884, the “potency as allosteric PHGDH inhibitor” value is given as “low micromolar potency”.
